Laboratory results taken from publication PMC4448990 (Pharmacology Research & Perspectives, 2015).

Sequences of proteins named here, by UniProt entry; tags and fusion partners are left off. Residues count along the entry.
UniProt P14867, 28-456: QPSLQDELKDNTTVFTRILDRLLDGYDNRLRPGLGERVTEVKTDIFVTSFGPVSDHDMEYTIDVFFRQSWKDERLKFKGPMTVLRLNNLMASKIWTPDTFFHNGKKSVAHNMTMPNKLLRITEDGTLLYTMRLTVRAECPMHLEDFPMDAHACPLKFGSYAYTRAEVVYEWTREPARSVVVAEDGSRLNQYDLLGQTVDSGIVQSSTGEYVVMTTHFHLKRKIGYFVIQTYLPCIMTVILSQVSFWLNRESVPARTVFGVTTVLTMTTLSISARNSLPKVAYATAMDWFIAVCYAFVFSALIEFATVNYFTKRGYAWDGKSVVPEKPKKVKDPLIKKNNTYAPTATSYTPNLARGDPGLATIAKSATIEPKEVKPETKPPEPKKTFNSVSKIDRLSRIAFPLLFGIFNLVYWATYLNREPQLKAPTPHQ
UniProt P18507, 40-475: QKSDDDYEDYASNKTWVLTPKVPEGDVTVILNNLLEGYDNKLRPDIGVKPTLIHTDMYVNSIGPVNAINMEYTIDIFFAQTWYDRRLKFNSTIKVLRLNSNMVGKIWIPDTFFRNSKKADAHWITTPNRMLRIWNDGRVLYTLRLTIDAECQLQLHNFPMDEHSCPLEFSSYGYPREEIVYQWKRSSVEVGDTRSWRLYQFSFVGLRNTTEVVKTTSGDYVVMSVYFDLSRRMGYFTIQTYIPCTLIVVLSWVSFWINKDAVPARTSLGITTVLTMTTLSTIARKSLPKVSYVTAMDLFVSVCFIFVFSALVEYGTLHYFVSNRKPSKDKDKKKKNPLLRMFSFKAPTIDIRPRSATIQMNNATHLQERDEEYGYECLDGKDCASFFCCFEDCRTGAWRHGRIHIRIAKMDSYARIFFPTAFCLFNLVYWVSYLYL
UniProt P47870, 25-512 limits assumed: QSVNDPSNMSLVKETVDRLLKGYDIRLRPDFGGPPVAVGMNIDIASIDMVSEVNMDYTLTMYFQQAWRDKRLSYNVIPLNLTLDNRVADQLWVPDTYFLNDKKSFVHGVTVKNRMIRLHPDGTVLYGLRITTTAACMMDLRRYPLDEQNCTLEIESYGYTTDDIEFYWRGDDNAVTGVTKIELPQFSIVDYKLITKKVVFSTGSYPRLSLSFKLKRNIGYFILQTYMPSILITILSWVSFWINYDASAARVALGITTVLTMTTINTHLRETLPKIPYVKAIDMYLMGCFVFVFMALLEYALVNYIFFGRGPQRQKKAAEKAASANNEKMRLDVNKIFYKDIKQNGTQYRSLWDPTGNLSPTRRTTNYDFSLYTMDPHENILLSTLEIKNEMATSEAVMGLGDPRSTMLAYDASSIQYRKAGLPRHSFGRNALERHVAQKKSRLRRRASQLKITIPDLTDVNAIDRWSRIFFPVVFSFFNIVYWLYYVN

Molecular target: human α1β2γ2 GABAA receptors (Homo sapiens, UniProt P14867+P18507+P47870)
Assay: submaximal GABA currents in Ltk cells
Assay type: cell-based

CN1CCc2cc3c(cc2[C@H]1[C@@H]1OC(=O)c2c1ccc1c2OCO1)OCO3 [Bicuculline]
IC50: 265 nM | GABA inward current stimulation, α1β2γ2, Mean ± SEM (0.1 μmol/L): 70.5 ± 3.2 | GABA inward current stimulation, α1β2γ2, Mean ± SEM (1 μmol/L): 24.3 ± 1.7 | GABA inward current stimulation, α1β2γ2, Mean ± SEM (3 μmol/L): 8.2 ± 1.0 | GABA inward current stimulation, α1β2γ2, Mean ± SEM (30 μmol/L): 0.4 ± 0.5
